{"sequences": {"note": "Protein sequences, listed by entry. Tags and fused reporters are not part of them.", "UniProt P27487, whole entry": "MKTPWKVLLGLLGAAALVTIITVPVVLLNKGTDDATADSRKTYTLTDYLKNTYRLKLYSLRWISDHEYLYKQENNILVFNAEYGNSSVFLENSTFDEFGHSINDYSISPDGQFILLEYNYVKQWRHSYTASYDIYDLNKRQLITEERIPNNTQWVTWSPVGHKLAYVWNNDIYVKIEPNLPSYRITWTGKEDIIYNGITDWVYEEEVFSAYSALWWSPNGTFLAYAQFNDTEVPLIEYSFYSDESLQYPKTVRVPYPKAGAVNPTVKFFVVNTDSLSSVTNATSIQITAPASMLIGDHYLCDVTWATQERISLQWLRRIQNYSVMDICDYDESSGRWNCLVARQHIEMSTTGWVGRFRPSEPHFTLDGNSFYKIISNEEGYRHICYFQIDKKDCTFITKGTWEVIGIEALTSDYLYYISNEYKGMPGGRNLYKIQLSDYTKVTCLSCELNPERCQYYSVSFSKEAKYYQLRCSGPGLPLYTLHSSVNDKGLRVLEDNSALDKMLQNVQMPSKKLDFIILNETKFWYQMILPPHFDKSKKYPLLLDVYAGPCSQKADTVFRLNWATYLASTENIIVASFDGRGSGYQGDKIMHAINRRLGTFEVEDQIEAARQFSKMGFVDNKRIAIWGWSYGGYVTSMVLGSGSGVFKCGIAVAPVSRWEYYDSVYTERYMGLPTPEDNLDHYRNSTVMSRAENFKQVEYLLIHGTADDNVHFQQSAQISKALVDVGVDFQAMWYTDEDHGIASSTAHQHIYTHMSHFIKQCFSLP"}, "source": "paper PMC9141920", "about": "“Identification and Characterization of Dipeptidyl Peptidase-IV Inhibitory Peptides from Oat Proteins” (Foods, 2022)", "target": "T1, human DPP-IV (Homo sapiens, UniProt P27487)", "T1 construct": "purchased Sigma-Aldrich", "experiment": "DPP-IV inhibitory activity assay with Gly-Pro-AMC as the substrate", "format": "biochemical", "conditions": "peptides", "protocol": "The DPP-IV inhibitory activity assay of the sample was performed using Gly-Pro-AMC as the substrate, as previously described. Briefly, 50 µL Gly-Pro-AMC (0.2 mM) was added to a 40 µL sample (dissolved in 100 mM HEPES buffer) and incubated for 10 min at 37 °C. The reaction was initiated by adding 10 µL DPP-IV enzyme solution (10 U/L). After being incubated for 60 min at 37 °C, the reaction was terminated by adding 100 µL sodium acetate buffer (1 M, pH 4.0). The fluorescence intensity of the mixture was measured with an excitation wavelength of 350 nm and an emission wavelength of 440 nm. The control group used the HEPES buffer instead of the sample. The blank group used the HEPES buffer instead of the sample and DPP-IV enzyme solution. The DPP-IV inhibitory activity of the sample was calculated as follows:(2) DPP-IV inhibitory activity (%)=(Ac− Ab) − (As−Ab)/(Ac−Ab)×100% where As, Ac, and Ab are the intensity of the fluorescence of the sample, control, and blank groups, respectively. The half-maximal inhibitory concentration (IC50) of the sample was calculated according to the DPP-IV inhibition activity against the concentrations of the sample. In addition, the type of inhibition of the sample was obtained from the Lineweaver–Burk equation and double reciprocal plots."}
{"smiles": "CC[C@H](C)[C@H](N)C(=O)N1CCC[C@H]1C(=O)N[C@H](C(=O)O)[C@@H](C)CC", "note": "[IPI, reference compound]", "values": [{"measurement": "IC50", "result": "5.95 ± 0.91", "unit": "µM"}]}
